Test: soluble on expression in E. coli; label from the status in PepcDB or PDB records

Soluble on expression in E. coli, soluble:
MSGGSSCSQTPSRAIPATRRVVLGDGVQLPPGDYSTTPGGTLFSTTPGGTRIIYDRKFLMECRNSPVTKTPPRDLPTIPGVTSPSSDEPPMEASQSHLRNSPEDKRAGGEESQFEMDI
MTLSPYLQEVAKRRTFAIISHPDAGKTTITEKVLLFGQAIQTAGTVKGRGSNQHAKSDWMEMEKQRGISITTSVMQFPYHDCLVNLLDTPGHEDFSEDTYRTLTAVDCCLMVIDAAKGVEDRTRKLMEVTRLRDTPILTFMNKLDRDIRDPMELLDEVENELKIGCAPITWPIGCGKLFKGVYHLYKDETYLYQSGKGHTIQEVRIVKGLNNPDLDAAVGEDLAQQLRDELELVKGASNEFDKELFLAGEITPVFFGTALGNFGVDHMLDGLVEWAPAPMPRQTDTRTVEASEDKFTGFVFKIQANMDPKHRDRVAFMRVVSGKYEKGMKLRQVRTAKDVVISDALTFMAGDRSHVEEAYPGDILGLHNHGTIQIGDTFTQGEMMKFTGIPNFAPELFRRIRLKDPLKQKQLLKGLVQLSEEGAVQVFRPISNNDLIVGAVGVLQFDVVVARLKSEYNVEAVYESVNVATARWVECADAKKFEEFKRKNESQLALDGGDNLAYIATSMVNLRLAQERYPDVQFHQTREH
MGHHHHHHHHHHSSGHIEGRHMVDMMDLPRSRINAGMLAQFIDKPVCFVGRLEKIHPTGKMFILSDGEGKNGTIELMEPLDEEISGIVEVVGRVTAKATILCTSYVQFKEDSHPFDLGLYNEAVKIIHDFPQFYPLGIVQHD

— the DeepSol protein solubility set
